Target: Protein kinase C (PKC)
Assay: Inhibition of partially purified rat brain protein kinase C

COC(=O)[C@@]1(O)C[C@H]2O[C@]1(C)n1c3ccccc3c3c4c(c5c6ccccc6n2c5c31)C(=O)NC4 (single isomer, unassigned) [K-252A]
IC50: 60 nM

From ChEMBL document CHEMBL1126522, “Indolocarbazoles. 1. Total synthesis and protein kinase inhibiting characteristics of compounds related to K-252c” (Bioorg Med Chem Lett, 1993)
